From US6255347A, “Methods and compositions comprising R-ibuprofen” (priority 1997, dated 2001)

Tests used:
PKC = biological target: T1, PKC (Rattus norvegicus, UniProt P05696); assay: Protein kinase C activity assay (histone phosphorylation, partially purified rat brain PKC); type: biochemical; details: summary statement
T1 construct: Partially purified PKCα from rat brain; purchased Promega (Madison, Wis.); host or cells: rat brain (tissue enzyme, partially purified)
Protocol: (-)-R-ibuprofen and (+)-S-ibuprofen (optical purity >99%) were obtained from Sepracor Inc. (Marlborough, Mass.). The following were obtained from the Sigma Chemical Co. (St. […] Anti-PKCα antibody (affinity purified) and its C-terminal region peptide was obtained from Life Technologies (Gaithersburg, Md.). […] All other chemicals were of the highest available purity and were obtained from standard commercial sources. The assay for PKC activity was carried out essentially as described by Boyle et al.(1991) by quantifying the phosphorylation of histone in the presence of phoshatidylserine and PMA, with or without ibuprofen. […] Following 2 min initial incubation at 30° C., kinase reactions were initiated by the addition of ^32 P-γ-ATP and enzyme and continued at 30° C. for 2 min. Control incubations contained all assay components except enzyme and ibuprofen. […] All samples were carried out in duplicate.

[1] = in vivo; cited from earlier work

SMILES	direct inhibition of PKC-mediated phosphorylation (PKC)	terminal half-life [1]
CC(C)Cc1ccc(C(C)C(=O)O)cc1 (racemic) [RS-ibuprofen]	≈ 60%	
CC(C)Cc1ccc([C@@H](C)C(=O)O)cc1 [R-ibuprofen]	≈ 60%	
CC(C)Cc1ccc([C@H](C)C(=O)O)cc1 [S-ibuprofen]	≈ 60%	
CC[C@]1(O)C[C@H]2CN(CCc3c([nH]c4ccccc34)[C@@](C(=O)OC)(c3cc4c(cc3OC)N(C=O)[C@H]3[C@@](O)(C(=O)OC)[C@H](OC(C)=O)[C@]5(CC)C=CCN6CC[C@]43[C@@H]65)C2)C1 [Vincristine]		about 24 hours
